Read-outs that look alike come from different tables or passages of the source. Marks after values point to notes of the source that are not given here. Blank lines part the entries; values can stand above or below the substance they belong to.
What was measured:
[1] = in toluene
[2] = deaerated solution in water, ~4.5 h irradiation
[3] = isothermal thermogravimetric analysis at 60 °C during 3 h
[4] = Fluorescence quantum yield; settings: in toluene
[5] = Singlet oxygen formation quantum yield; settings: aerated ethanol solution, phenazine as reference
[6] = Luminescence response to O2 concentration (Stern-Volmer analysis); settings: ratio of intensity 755 nm / 600 nm, pO2 from 0 to 21 %, aqueous micellar system
[7] = O2 saturated solution (3 hours of bubbling with oxygen)
[8] = deaerated (nitrogen saturated) solution
[9] = O2 saturated solution, room temperature

- φP [1, 7]: 0.0002^e
- φP [1, 8]: 0.068^d
- φP ([1]; presence of O2 (air equilibrated, [O2]= 1.8×10^-3 M)): 0.0019^c
- Phosporescence lifetime (aqueous micellar system (Tween80/DMSO/water (2/2/96, v/v/v)), deaerated solution): 30.9^b,d µs
- Phosporescence lifetime (aqueous micellar system (Tween80/DMSO/water (2/2/96, v/v/v)), deaerated solution, listed as Pt(II)-chlorin 8): 30.9 µs
- Phosporescence lifetime (aqueous micellar system (Tween80/DMSO/water (2/2/96, v/v/v)), deaerated solution, listed as chlorin 8): 30.9 µs
- Phosporescence lifetime (aqueous micellar system (Tween80/DMSO/water (2/2/96, v/v/v)), presence of O2): 11.3^b,c µs
- Phosporescence lifetime (aqueous micellar system (Tween80/DMSO/water (2/2/96, v/v/v)), presence of O2, listed as Pt(II)-chlorin 8): 11.3 µs
- Phosporescence lifetime (aqueous micellar system (Tween80/DMSO/water (2/2/96, v/v/v)), presence of O2, listed as chlorin 8): 11.3 µs
- phosphorescence lifetime (dearated ethanol solution (Figure 5B)): 9.40 µs
- phosphorescence lifetime (ethanol solution, with oxygen (Figure 5A)): 865 ns
- Phosporescence lifetime (in toluene, deaerated solution): 25.7^a,d µs
- Phosporescence lifetime (in toluene, presence of O2): 0.5^a,c µs
- phosphorescence intensity at 756 nm [2]: unchanged
- mass loss [3]: less than 1%
- φF [4, 9]: 0.0001
- φF ([4]; presence of O2, room temperature): 0.0001^c
- singlet oxygen quantum yield (φΔ) [5]: 0.58
- KSV (Stern-Volmer constant) [6]: 0.18
Substance: platinum (II) 2,3-dihydroxymethyl-4,5,6,7-tetrahydropyrazolo[1,5-α]pyridine-fused chlorin [Chlorin 8]

- φP [1, 7]: 0.0002
- φP [1, 8]: 0.088^d
- φP ([1]; deaerated (nitrogen saturated) solution, listed as chlorins 7b): 0.088
- φP ([1]; presence of O2 (air equilibrated, [O2]= 1.8×10^-3 M), listed as chlorins 7b): 0.0028
- Phosporescence lifetime (in toluene, deaerated solution): 26.1^a,d µs
- Phosporescence lifetime (in toluene, presence of O2): 0.4^a,c µs
- mass loss [3]: less than 1%
- φF [4, 9]: 0.0001^e
- φF ([4]; O2 saturated solution, room temperature, listed as chlorin 7b): 0.0001
Substance: platinum (II) dimethyl 4,5,6,7-tetrahydropyrazolo[1,5-α]pyridine-2,3-dicarboxylate-fused chlorin [Chlorin 7b]

— patent EP3419977B1, “PLATINUM(II) RING-FUSED CHLORINS, METHODS AND USES THEREOF” (Universidade de Coimbra, priority 2016, dated 2017)
